Test results published in ChEMBL document CHEMBL2176977 (J Med Chem, 2012).

Sequences of proteins named here, by UniProt entry; tags and fusion partners are left off.
UniProt P41144, whole entry: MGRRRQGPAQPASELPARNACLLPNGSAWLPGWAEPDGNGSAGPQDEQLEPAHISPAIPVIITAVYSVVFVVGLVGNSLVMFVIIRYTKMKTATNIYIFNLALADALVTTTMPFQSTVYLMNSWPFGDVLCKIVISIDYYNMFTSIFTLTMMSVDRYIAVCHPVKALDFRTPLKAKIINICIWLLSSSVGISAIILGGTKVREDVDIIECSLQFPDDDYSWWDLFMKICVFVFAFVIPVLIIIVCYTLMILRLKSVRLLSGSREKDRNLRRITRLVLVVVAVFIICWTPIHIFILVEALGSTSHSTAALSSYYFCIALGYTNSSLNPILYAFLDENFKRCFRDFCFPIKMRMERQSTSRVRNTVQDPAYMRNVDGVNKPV
UniProt P97266, whole entry: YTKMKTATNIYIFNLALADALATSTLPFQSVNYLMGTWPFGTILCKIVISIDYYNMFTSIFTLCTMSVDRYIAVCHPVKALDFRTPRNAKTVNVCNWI

Experiments:
Mus musculus [1] = assay: Inhibition of bremazocine-induced antinociception in mouse assessed as reversal of inhibition of acetic acid-induced writhing at 32 mg/kg administered 24 hrs post bremazocine treatment
Mus musculus [2] = assay: Inhibition of BW373U86-induced antinociception in mouse assessed as reversal of inhibition of acetic acid-induced writhing at 32 mg/kg administered 24 hrs post BW373U86 treatment
Mus musculus [3] = assay: Inhibition of morphine-induced antinociception in mouse assessed as reversal of inhibition of acetic acid-induced writhing at 32 mg/kg administered 24 hrs post morphine treatment
Mus musculus [4] = assay: Antinociceptive activity in mouse assessed as inhibition of acetic acid-induced writhing at 32 mg/kg
Mus musculus [5] = assay: Inhibition of morphine-induced antinociception in mouse assessed as rightward shift of morphine curve at 32 mg/kg administered 24 hrs prior morphine treatment by 55 degC warm water test relative to control
[6] = target: Kappa-type opioid receptor (Cavia porcellus, UniProt P41144); assay: Displacement of [3H]U69593 from KOR in guinea pig brain membrane
Mu-type opioid receptor = Mu-type opioid receptor (Cavia porcellus, UniProt P97266); assay: Displacement of [3H]DAMGO from MOR in guinea pig brain membrane
Mus musculus [7] = assay: Inhibition of morphine-induced antinociception in mouse assessed as rightward shift of morphine curve at 32 mg/kg administered 30 mins prior morphine treatment by 55 degC warm water test relative to control
Mus musculus [8] = assay: Antinociceptive activity in mouse assessed as inhibition of acetic acid-induced writhing at 10 mg/kg
Mus musculus [9] = assay: Inhibition of morphine-induced antinociception in mouse assessed as rightward shift of morphine curve at 10 mg/kg administered 24 hrs post morphine treatment by 55 degC warm water test relative to control
Mus musculus [10] = assay: Antinociceptive activity in mouse assessed as tail withdrawal latency at 100 mg/kg by 55 degC warm water test
Mus musculus [11] = assay: Antinociceptive activity in mouse assessed as tail withdrawal latency at 100 mg/kg by 50 degC warm water test

`COC(=O)/C=C/C(=O)NC[C@H]1C[C@@]23CC[C@]1(OC)[C@@H]1Oc4c(O)ccc5c4[C@@]12CCN(CC1CC1)[C@@H]3C5` [listing 1 of 2 here] showed an inhibition (INH) (Mus musculus [1]) of 25%, an inhibition (INH) (Mus musculus [2]) of 10% and an inhibition (INH) (Mus musculus [3]) of 95%. For the same compound, the inhibition (INH) (Mus musculus [4]) was 80% and the fold change (FC) (Mus musculus [5]) was 30.
`COC(=O)/C=C/C(=O)O[C@@]12CCC(=O)[C@@H]3Oc4c(O)ccc5c4[C@@]31CCN(CC1CC1)[C@@H]2C5` [listing 1 of 2 here] was tested, and the Ki [6] was 0.8 nM and the Ki (Mu-type opioid receptor) was 0.2 nM.
For `COC(=O)/C=C/C(=O)N[C@H]1C[C@@]23CC[C@]1(OC)[C@@H]1Oc4c(O)ccc5c4[C@@]12CCN(CC1CC1)[C@@H]3C5`, the Ki [6] was 1.9 nM, the Ki (Mu-type opioid receptor) was 2.8 nM and the inhibition (INH) (Mus musculus [1]) was 20%. For the same compound, the inhibition (INH) (Mus musculus [2]) was 28%, the inhibition (INH) (Mus musculus [3]) was 70% and the fold change (FC) (Mus musculus [5]) was 4. It also gave a fold change (FC) (Mus musculus [7]) of 30.
`COC(=O)/C=C/C(=O)NC[C@H]1C[C@@]23CC[C@]1(OC)[C@@H]1Oc4c(O)ccc5c4[C@@]12CCN(CC1CC1)[C@@H]3C5` [listing 2 of 2 here] gave a Ki [6] of 2.8 nM and a Ki (Mu-type opioid receptor) of 0.9 nM.
Work on `CO[C@]12CC[C@@]3(C[C@@H]1CNC(=O)/C=C/c1ccccc1)[C@H]1Cc4ccc(O)c5c4[C@@]3(CCN1CC1CC1)[C@H]2O5` yielded a Ki [6] of 2.6 nM and a Ki (Mu-type opioid receptor) of 0.7 nM.
`COC(=O)CCC(=O)N[C@@]12CCC(=O)[C@@H]3Oc4c(O)ccc5c4[C@@]31CCN(CC1CC1)[C@@H]2C5` [listing 1 of 2 here] gave an Imax (Mus musculus [4]) of 90%, a fold change (FC) (Mus musculus [5]) of 4 and a fold change (FC) (Mus musculus [7]) of 10.
Work on `COC(=O)/C=C/C(=O)O[C@@]12CCC(=O)[C@@H]3Oc4c(O)ccc5c4[C@@]31CCN(CC1CC1)[C@@H]2C5` [listing 2 of 2 here] yielded an inhibition (INH) (Mus musculus [1]) of 30%, an inhibition (INH) (Mus musculus [2]) of 15% and an inhibition (INH) (Mus musculus [3]) of 10%. For the same compound, the fold change (FC) (Mus musculus [5]) was 4.
`COC(=O)CCC(=O)N[C@@]12CCC(=O)[C@@H]3Oc4c(O)ccc5c4[C@@]31CCN(CC1CC1)[C@@H]2C5` [listing 2 of 2 here] gave a Ki [6] of 0.5 nM and a Ki (Mu-type opioid receptor) of 0.7 nM.
`COC(=O)/C=C/C(=O)N[C@@]12CCC(=O)[C@@H]3Oc4c(O)ccc5c4[C@@]31CCN(CC1CC1)[C@@H]2C5` gave an Imax (Mus musculus [8]) of 90%, a fold change (FC) (Mus musculus [9]) of 6 and an Activity (Mus musculus [10]) of 30%. It also gave an Activity (Mus musculus [11]) of 60%, a Ki [6] of 0.5 nM and a Ki (Mu-type opioid receptor) of 0.24 nM. It also gave an inhibition (INH) (Mus musculus [1]) of 5%, an inhibition (INH) (Mus musculus [2]) of 31% and an inhibition (INH) (Mus musculus [3]) of 62%.
In the case of `CO[C@]12CC[C@@]3(C[C@@H]1NC(=O)/C=C/c1ccccc1)[C@H]1Cc4ccc(O)c5c4[C@@]3(CCN1CC1CC1)[C@H]2O5`, the Ki [6] is reported as 1.3 nM and the Ki (Mu-type opioid receptor) is reported as 0.9 nM.
